Literature values, collected in US11981752B2, “Tumor associated monocyte/macrophage binding peptide and methods of use thereof” (Sanford Burnham Prebys Medical Discovery Institute, priority 2017, dated 2024).

The chains behind the UniProt entries cited, without tags or fusion partners. Where a name states a change or a piece, a line headed by the entry shows the natural chain unless it says otherwise.
UniProt O00329, whole entry: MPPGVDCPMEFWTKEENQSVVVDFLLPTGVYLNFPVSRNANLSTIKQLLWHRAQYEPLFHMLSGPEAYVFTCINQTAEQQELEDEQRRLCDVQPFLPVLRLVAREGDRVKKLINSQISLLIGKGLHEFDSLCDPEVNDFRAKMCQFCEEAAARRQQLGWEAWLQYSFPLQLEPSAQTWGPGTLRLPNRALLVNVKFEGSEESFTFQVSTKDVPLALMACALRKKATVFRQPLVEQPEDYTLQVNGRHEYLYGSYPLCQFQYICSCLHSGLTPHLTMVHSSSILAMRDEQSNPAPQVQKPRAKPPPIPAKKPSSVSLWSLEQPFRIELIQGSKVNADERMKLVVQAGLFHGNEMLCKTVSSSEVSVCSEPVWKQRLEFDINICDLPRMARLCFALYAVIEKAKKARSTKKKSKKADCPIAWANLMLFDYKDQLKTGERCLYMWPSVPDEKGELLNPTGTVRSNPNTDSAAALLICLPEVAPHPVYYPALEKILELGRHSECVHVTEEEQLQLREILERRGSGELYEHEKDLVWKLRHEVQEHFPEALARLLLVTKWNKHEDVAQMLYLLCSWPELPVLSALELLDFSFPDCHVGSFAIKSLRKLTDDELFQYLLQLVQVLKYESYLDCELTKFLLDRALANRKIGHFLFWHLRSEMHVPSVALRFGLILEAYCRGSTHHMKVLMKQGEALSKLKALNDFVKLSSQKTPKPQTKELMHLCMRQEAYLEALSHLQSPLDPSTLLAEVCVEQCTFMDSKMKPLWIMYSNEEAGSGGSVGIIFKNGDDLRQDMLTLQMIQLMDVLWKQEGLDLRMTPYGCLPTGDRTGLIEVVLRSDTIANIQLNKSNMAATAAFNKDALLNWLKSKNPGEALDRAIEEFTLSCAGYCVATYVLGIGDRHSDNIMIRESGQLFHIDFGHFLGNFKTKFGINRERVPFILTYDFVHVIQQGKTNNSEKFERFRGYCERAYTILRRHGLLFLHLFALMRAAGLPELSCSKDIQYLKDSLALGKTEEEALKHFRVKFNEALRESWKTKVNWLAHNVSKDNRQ
UniProt P27986, whole entry partner: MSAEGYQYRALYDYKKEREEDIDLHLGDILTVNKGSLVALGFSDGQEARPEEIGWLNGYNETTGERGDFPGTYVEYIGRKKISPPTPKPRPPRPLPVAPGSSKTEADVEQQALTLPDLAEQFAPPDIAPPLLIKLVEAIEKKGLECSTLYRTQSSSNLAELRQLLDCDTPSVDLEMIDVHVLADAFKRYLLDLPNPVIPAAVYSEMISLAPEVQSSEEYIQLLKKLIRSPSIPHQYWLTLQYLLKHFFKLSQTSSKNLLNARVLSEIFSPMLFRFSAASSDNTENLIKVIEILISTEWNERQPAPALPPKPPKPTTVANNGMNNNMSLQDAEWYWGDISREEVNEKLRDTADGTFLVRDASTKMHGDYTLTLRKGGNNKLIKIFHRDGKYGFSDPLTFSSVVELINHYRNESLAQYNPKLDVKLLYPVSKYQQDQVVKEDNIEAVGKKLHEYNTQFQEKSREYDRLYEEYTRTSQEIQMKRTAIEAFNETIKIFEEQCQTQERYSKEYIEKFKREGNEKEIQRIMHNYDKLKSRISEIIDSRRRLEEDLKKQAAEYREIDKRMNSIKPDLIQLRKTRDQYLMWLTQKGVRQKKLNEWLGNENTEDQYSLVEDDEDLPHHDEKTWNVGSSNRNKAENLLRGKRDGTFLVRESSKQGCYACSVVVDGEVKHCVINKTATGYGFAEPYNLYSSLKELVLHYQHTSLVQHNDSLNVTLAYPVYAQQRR

Target: PI3Kδ (Homo sapiens, UniProt O00329)
Details: cited from earlier work

In the case of `Cc1ccccc1-n1c(Cn2ncc3c(N)ncnc32)nc2cccc(C)c2c1=O` [PIK-293], the “selectivity for PI3Kδ over PI3Kα (fold less potent to PI3Kα)” value is given as 500 fold, the “selectivity for PI3Kδ over PI3Kβ (fold less potent to PI3Kβ)” value is given as 100 fold and the “selectivity for PI3Kδ over PI3Kγ (fold less potent to PI3Kγ)” value is given as 50-fold less potent to PI3Kα/β/γ, respectively.
